Reference: paper PMC7821949 (Biomolecules, 2020)

By UniProt entry, the sequences of proteins in these tests, tags left out. Residues count along the entry.
UniProt P02710, 25-461 limits assumed: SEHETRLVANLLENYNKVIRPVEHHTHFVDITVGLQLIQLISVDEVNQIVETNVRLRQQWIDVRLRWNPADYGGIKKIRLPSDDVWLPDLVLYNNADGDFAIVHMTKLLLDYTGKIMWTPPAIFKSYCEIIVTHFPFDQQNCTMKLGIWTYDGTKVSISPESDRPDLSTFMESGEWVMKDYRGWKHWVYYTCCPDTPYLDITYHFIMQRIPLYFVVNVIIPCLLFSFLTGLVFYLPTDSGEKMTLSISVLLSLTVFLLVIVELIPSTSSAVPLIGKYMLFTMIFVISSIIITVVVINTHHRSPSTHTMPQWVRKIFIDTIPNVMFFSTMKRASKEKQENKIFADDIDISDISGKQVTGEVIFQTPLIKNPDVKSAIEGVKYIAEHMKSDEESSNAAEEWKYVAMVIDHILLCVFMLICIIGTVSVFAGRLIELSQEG
UniProt P02712, 25-493 partner limits assumed: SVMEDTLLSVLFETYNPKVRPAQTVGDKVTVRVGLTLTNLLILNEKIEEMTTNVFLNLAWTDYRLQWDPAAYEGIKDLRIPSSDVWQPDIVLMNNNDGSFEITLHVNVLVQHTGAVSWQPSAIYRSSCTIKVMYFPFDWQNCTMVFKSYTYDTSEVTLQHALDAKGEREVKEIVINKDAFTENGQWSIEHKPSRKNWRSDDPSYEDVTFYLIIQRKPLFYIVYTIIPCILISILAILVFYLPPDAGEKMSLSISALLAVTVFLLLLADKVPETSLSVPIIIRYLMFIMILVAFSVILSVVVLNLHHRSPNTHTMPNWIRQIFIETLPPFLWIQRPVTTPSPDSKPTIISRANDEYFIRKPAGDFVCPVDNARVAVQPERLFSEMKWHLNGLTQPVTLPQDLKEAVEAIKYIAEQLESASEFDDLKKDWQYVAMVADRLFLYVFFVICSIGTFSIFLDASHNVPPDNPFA
UniProt P02714, 18-506 limits assumed: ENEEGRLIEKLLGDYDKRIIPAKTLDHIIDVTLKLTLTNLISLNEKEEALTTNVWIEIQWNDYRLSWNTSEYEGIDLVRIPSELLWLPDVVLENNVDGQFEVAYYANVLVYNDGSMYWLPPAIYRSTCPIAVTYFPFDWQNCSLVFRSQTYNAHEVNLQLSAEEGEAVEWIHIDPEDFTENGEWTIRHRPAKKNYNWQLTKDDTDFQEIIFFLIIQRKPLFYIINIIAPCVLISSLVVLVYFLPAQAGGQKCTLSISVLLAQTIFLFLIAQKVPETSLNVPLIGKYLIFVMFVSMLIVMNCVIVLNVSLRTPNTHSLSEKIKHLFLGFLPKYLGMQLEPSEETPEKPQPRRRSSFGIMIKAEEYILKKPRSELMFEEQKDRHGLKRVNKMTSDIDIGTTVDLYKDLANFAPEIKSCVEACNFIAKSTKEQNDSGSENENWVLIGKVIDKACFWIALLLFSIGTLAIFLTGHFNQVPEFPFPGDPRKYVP
UniProt P02718, 22-522 limits assumed: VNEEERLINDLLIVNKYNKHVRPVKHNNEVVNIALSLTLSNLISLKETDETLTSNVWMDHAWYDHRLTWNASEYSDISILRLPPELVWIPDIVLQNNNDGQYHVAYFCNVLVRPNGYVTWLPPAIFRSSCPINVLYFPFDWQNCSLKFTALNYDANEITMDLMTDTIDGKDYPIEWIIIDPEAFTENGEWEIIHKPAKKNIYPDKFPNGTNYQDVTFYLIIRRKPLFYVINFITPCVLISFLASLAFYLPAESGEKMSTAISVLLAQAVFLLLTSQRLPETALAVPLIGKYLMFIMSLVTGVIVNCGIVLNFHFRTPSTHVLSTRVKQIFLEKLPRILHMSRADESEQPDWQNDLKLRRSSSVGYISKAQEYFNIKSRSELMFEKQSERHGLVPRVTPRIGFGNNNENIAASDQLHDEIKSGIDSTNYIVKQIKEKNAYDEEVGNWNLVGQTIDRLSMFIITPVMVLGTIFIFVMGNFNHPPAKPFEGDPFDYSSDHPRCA

Target: muscle-type nAChR from T. californica ray electric organ (Tetronarce californica, UniProt P02710+P02712+P02714+P02718)
Assay: Competitive radioligand assay with 125I-α-Bgt on Torpedo membranes
Conditions: read-out: IC50, inhibition of 125I-α-Bgt binding to T. californica nAChR; Torpedo electric organ membranes (0.6 nM α-Bgt binding sites); 90 min with peptide, then 5 min with 0.5 nM 125I-α-Bgt; 20 mM Tris-HCl pH 8.0, 1 mg/mL BSA; one-site fit; mean ± SEM, two measurements per concentration in two independent experiments

SMILES	IC50 [µM]
CSCC[C@H](NC(=O)[C@H](CCCNC(=N)N)NC(=O)[C@@H](NC(=O)[C@@H]1CCCN1C(=O)[C@@H](NC(=O)[C@H](Cc1ccc(O)cc1)NC(=O)[C@H](Cc1ccc(O)cc1)NC(=O)[C@@H](NC(=O)[C@H](CCCNC(=N)N)NC(=O)[C@@H](NC(=O)[C@@H](NC(=O)[C@@H](N)CS)[C@@H](C)O)[C@@H](C)O)[C@@H](C)O)[C@@H](C)O)[C@@H](C)O)C(=O)N[C@@H](CCCCN)C(=O)N[C@H](C(=O)N[C@@H](CO)C(=O)N[C@@H](CCCCN)C(=O)N[C@@H](CS)C(=O)O)C(C)C	1.1
CSCC[C@@H]1NC(=O)[C@H](CCCNC(=N)N)NC(=O)[C@H]([C@@H](C)O)NC(=O)[C@@H]2CCCN2C(=O)[C@H]([C@@H](C)O)NC(=O)[C@H](Cc2ccc(O)cc2)NC(=O)[C@H](Cc2ccc(O)cc2)NC(=O)[C@H]([C@@H](C)O)NC(=O)[C@H](CCCNC(=N)N)NC(=O)[C@H]([C@@H](C)O)NC(=O)[C@H]([C@@H](C)O)NC(=O)[C@@H](N)CSSC[C@@H](C(=O)O)NC(=O)[C@H](CCCCN)NC(=O)[C@H](CO)NC(=O)[C@H](C(C)C)NC(=O)[C@H](CCCCN)NC1=O	6
CSCC[C@H](NC(=O)[C@H](CCCNC(=N)N)NC(=O)[C@@H](NC(=O)[C@@H]1CCCN1C(=O)[C@@H](NC(=O)[C@H](Cc1ccc(O)cc1)NC(=O)[C@H](Cc1ccc(O)cc1)NC(=O)[C@@H](NC(=O)[C@H](CCCNC(=N)N)NC(=O)[C@@H](NC(=O)[C@@H](N)[C@@H](C)O)[C@@H](C)O)[C@@H](C)O)[C@@H](C)O)[C@@H](C)O)C(=O)N[C@@H](CCCCN)C(=O)N[C@H](C(=O)N[C@@H](CO)C(=O)N[C@@H](CCCCN)C(=O)O)C(C)C	7.9
